The target of this experiment is T1, human Nav1.7 (hNav1.7) (Homo sapiens, UniProt Q15858).
T1 construct: expressed in transfected cells; host or cells: HEK293
Put plainly: whole-cell patch-clamp assay, inhibition of hNav1.7 currents. The experiment is classed as cell-based. The conditions noted are these: HEK293 cells transiently transfected with human Nav1.7, room temperature, currents elicited by depolarization to −10 mV, dose-response curve, data points mean ± S.E., each from three to five experimental cells.

Sequences of proteins named here, by UniProt entry; tags and fusion partners are left off.
UniProt Q15858, whole entry: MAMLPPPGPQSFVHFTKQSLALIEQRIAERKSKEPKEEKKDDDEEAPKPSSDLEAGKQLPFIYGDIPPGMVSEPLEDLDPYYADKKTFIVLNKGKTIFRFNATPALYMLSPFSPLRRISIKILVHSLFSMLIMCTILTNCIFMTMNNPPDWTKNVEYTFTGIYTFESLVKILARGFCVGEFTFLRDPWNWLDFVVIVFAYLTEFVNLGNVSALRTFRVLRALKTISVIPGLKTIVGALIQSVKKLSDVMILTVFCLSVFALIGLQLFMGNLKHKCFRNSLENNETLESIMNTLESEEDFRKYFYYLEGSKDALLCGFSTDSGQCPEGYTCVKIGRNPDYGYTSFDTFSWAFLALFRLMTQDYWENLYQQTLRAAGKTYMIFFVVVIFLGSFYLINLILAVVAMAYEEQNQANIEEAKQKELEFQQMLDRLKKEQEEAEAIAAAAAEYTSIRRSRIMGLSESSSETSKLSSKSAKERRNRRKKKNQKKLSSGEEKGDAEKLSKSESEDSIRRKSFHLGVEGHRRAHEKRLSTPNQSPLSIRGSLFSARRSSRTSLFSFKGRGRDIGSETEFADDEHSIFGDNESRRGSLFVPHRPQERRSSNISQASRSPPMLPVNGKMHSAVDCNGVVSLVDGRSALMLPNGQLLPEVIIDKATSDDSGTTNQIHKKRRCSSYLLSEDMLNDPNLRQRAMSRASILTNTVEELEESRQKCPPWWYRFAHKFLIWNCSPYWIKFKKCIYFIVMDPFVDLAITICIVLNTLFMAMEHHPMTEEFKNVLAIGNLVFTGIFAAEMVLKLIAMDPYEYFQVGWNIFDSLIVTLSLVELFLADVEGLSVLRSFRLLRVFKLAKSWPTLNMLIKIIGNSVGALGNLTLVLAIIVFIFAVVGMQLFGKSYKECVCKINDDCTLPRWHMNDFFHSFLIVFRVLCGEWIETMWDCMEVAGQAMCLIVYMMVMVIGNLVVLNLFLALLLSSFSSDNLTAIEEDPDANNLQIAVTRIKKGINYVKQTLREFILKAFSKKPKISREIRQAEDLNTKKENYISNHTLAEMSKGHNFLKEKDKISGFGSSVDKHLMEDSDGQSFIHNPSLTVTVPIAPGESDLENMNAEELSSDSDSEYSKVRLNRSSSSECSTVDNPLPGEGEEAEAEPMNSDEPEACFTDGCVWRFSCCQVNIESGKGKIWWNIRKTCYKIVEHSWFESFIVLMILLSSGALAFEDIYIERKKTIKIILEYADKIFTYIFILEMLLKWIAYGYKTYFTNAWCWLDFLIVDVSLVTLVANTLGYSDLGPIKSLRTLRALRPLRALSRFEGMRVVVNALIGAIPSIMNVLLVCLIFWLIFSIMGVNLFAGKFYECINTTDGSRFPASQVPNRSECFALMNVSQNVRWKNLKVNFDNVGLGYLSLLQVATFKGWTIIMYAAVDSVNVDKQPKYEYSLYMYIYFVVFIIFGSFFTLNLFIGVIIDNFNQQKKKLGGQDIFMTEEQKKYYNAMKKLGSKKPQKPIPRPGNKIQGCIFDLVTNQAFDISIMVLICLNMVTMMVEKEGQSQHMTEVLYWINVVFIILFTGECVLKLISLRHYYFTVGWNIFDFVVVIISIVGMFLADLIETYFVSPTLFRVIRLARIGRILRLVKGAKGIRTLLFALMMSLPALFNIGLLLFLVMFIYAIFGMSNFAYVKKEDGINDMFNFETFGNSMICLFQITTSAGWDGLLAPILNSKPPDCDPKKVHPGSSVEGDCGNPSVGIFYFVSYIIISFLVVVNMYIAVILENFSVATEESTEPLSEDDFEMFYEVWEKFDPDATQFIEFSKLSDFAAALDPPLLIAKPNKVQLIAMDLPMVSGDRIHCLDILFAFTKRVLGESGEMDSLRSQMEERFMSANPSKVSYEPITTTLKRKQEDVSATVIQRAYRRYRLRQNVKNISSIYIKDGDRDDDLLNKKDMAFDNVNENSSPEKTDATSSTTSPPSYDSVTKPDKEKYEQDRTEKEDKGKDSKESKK

In turn, `CC(C)C[C@H](NC(=O)[C@H](CCCCN)NC(=O)[C@H](Cc1c[nH]c2ccccc12)NC(=O)[C@H](CCCCN)NC(=O)[C@@H]1CSSC[C@@H]2NC(=O)[C@H](CCC(=O)O)NC(=O)[C@H](CC(N)=O)NC(=O)[C@H](CCCCN)NC(=O)CNC(=O)[C@@H]3CCCN3C(=O)[C@H]([C@@H](C)O)NC(=O)[C@@H]3CSSC[C@H](NC(=O)[C@H](C(C)C)NC(=O)[C@H](CCCNC(=N)N)NC(=O)[C@H](CC(N)=O)NC(=O)[C@@H]4CCCN4C(=O)[C@H](CSSC[C@H](NC(=O)[C@H](C)N)C(=O)N[C@@H](CCCCN)C(=O)NCC(=O)N[C@@H](C(C)C)C(=O)N[C@@H](Cc4ccccc4)C(=O)N[C@@H](CC(=O)O)C(=O)N[C@@H](C)C(=O)N3)NC2=O)C(=O)N[C@@H](CO)C(=O)N[C@@H](CC(=O)O)C(=O)N[C@@H](CCCCN)C(=O)N[C@@H](Cc2cnc[nH]2)C(=O)N[C@@H](CCCCN)C(=O)N[C@@H](Cc2c[nH]c3ccccc23)C(=O)N1)C(=O)O` [HWTX-I] yielded an IC50 of 0.63 µM.
The result for `CC(C)C[C@H](NC(=O)[C@H](CCCCN)NC(=O)[C@H](Cc1c[nH]c2ccccc12)NC(=O)[C@H](CCCCN)NC(=O)[C@@H]1CSSC[C@@H]2NC(=O)[C@H](CCC(=O)O)NC(=O)[C@H](CC(N)=O)NC(=O)[C@H](CCCCN)NC(=O)CNC(=O)[C@@H]3CCCN3C(=O)[C@H]([C@@H](C)O)NC(=O)[C@@H]3CSSC[C@H](NC(=O)[C@H](C(C)C)NC(=O)[C@H](CCCNC(=N)N)NC(=O)[C@H](CC(N)=O)NC(=O)[C@@H]4CCCN4C(=O)[C@H](CSSC[C@H](NC(=O)[C@H](C)N)C(=O)N[C@@H](CCCCN)C(=O)NCC(=O)N[C@@H](C(C)C)C(=O)N[C@@H](Cc4ccccc4)C(=O)N[C@@H](CC(=O)O)C(=O)N[C@@H](C)C(=O)N3)NC2=O)C(=O)N[C@@H](CO)C(=O)N[C@@H](CC(=O)O)C(=O)N[C@@H](CCCCN)C(=O)N[C@@H](Cc2cnc[nH]2)C(=O)N[C@@H](CCCCN)C(=O)N[C@@H](Cc2c[nH]c3ccccc23)C(=O)N1)C(=O)O` [rHWTX-I] reads 0.64 µM.

(Values after PMC3121796 (PLoS ONE, 2011).)
